Laboratory results reported in patent US9359314B2, “Thiazine amide derivative and pharmaceutical composition and use thereof” (Institute Of Pharmacology And Toxicology Academy Of …, priority 2012, dated 2016).

Test system: MDCK-MDR1 cells
Assay: Membrane permeability of MDCK-MDR1 monolayer cells (blood-brain barrier permeability model)
Source text: MDCK-MDR1 cells are monolayer cells with high expression of a P-gp transporter after MDR1 genes are transfected in MDCK (Madin-Darby canine kidney epithelial cells). Due to the compactness of the monolayer cells and high expression of a pharmaceutical efflux protein, the cells have a similarity to the structure of the blood-brain barrier (BBB), and can be used as one of the models for evaluating the BBB permeability. Because the compounds of the present invention targeted at the central nervous system and were needed to permeate the BBB, the MDCK-MDR1 cells were applied to research the membrane permeability, and the BBB permeability was preliminarily evaluated. […]
When 80% of the cells were fused, the cells were suspended with a complete culture medium, and inoculated into a Millicell plate according to 1×10^6-mL^−1. […] After cultured for 5 days, the cells were ready for transport experiment when the resistance achieves a platform (>2000 Ω·cm^2).
The solution in the lower pools was collected at 0, 30, 90 and 120 min and stored at −20° C. for later measurement. The permeation amount of the Rho-123 in the lower pools was detected by a fluorescence spectrophotometer, wherein the transmission wavelength was set to […] and the excitation wavelength was set to 530 nm. […]
The sample was detected by LC/MS. Concentration of each sample was quantified with a standard curve (50 nM-10000 nM).

Papp value of positive quality control compound versus literature (5 μmol·L^1 in HBSS, upper to lower pool): accorded with literature reports
Papp(×10^−6) (MDCK-MDR1 monolayer, direction not given): 4.89 ×10^−6
Substance: Rhodamine 123 [reference compound]
